From patent US5741891A, “Pulmonary surfactant peptide solubilization process” (Ortho Pharmaceutical Corporation, priority 1996, dated 1998)

Key:
[1] = OD450 light-scattering measurement of aggregation during incubation in trifluoroethanol (TFE); settings: 27° C.
[2] = OD450 light-scattering measurement of aggregation of peptide dissolved in 95% EtOH; settings: 5 mg/ml, 45° C.
[3] = 5 mg/mL in 95% EtOH, after TFE treatment

Row | OD450 ([1]; time 2 hrs) | OD450 ([1]; time 5 hrs) | OD450 ([1]; time 7 hrs) | OD450 ([1]; time 24.5 hrs) | OD450 ([1]; time 24.5 hrs (filtered)) | OD450 ([2]; t = 0 min) | OD450 ([2]; t = 0 min, listed as BO) | OD450 ([2]; t = 10 min) | OD450 ([2]; t = 20 min) | OD450 ([2]; t = 30 min) | OD450 ([2]; t = 40 min) | appearance of solution on dissolving in 95% EtOH [3] | Sequence
1 | 0.0204 | 0.0165 | 0.0234 | 0.0124 | 0.0067 |  |  |  |  |  |  |  | KLLLLKLLLLKLLLLKLLLLK [KL4 peptide]
2 |  |  |  |  |  | < 0.05 | 0.0199 | 0.0173 | 0.0131 | 0.0589 | 0.0681 | clear non viscous solution | KLLLLKLLLLKLLLLKLLLLK [TFE treated KL-4]
